Source: PubChem BioAssay AID651635 (National Center for Advancing Translational Sciences (NCATS), 2012)
This is a selection; strong and weak results do not stand in their true shares. Records with an inconclusive call do not appear. Active and inactive are the calls of the source. Calls come from the whole dose curve; as a rule, active = well fitted cell-killing curve with a large enough effect; inconclusive = small, poorly fitted or top-dose-only effect, or effect the other way; inactive = no such curve, though single readings can be large or run the other way.

Assay: Viability Counterscreen for Primary qHTS for Inhibitors of ATXN expression; note: nearly all actives have a fitted effect of over 40% in size
Conditions: S2 cells (HEK-293 line with an ATXN2-luciferase reporter) viability, CellTiter-Fluor protease fluorescence, 24 h

Q: For CCC(=O)N(c1ccccc1)C1(COC)CCN(CCn2nnn(CC)c2=O)CC1, which activity change, negative = cytotoxicity (at 56.7 µM (top of the series)) is on record?
A: inactive: -19.7%

Q: And the activity change, negative = cytotoxicity (at 114 µM (top of the series))?
A: inactive: 20.1%

Q: For CCC(=O)N(c1ccccc1)C1(COC)CCN(CCc2cccs2)CC1, which activity change, negative = cytotoxicity (at 56.7 µM (top of the series)) is on record?
A: inactive: -21.4%

Q: And the activity change, negative = cytotoxicity (at 114 µM (top of the series))?
A: inactive: -5.24%
